The record followed here is patent EP2626066A1, “Combination therapy comprising selective VEGFR-2 inhibitors and MEK inhibitors” (Max-Planck-Gesellschaft zur Förderung der Wissenschaften …, priority 2012, dated 2013).

The test system of assay [1] is H441 cells. The assay is described as follows: VEGF secretion ELISA assay, H441 cells. The assay is classed as cell-based, human. How it is done:
Cells were either treated with the indicated compounds or DMSO alone. After 4 hours cells were stimulated with 40 ng/ml of VEGF165, or incubated in medium containing DMSO only. Cells were then washed twice with PBS and supplemented with serum-free medium and allowed to secrete VEGF for 48 hours. Secretion of VEGF into cell culture supernatants was measured by Human VEGF Quantikine Kit (R&D Systems) according to manufacturer's instructions.

Another assay deals with pERK. Conditions: in vitro, after VEGF stimulation had reduced it; Fig. 1c.
Another assay has as its system H1650. The conditions noted are these: H1650, very low VEGFR2; daily oral gavage ZD6474 50 mg/kg, PD0325901 12mg/kg; start at about 50mm^3; Fig. 10. How it is done: (§1) All animal procedures were approved by the local animal protection committee and the local authorities. H1975, H441 and H1650 cells (5x10^6 cells) were injected subcutaneously into male nude mice. […] Mice were treated daily by oral gavage of ZD6474 (50 mg/kg, solved in vehicle), PD0325901 (12mg/kg, dissolved in propylene glycol:water (1:1)), the combination of ZD6474 (50 mg/kg) and PD0325901 (12mg/kg) or vehicle detergent alone. Tumor size of tumors expressing high levels of VEGFR2 (H441, H1975) and tumor with low expression of VEGFR2 (H1650) were monitored measuring perpendicular diameters.
(§2) All animal procedures were approved by the local animal protection committee and the local authorities. High VEGFR2 expressing tumor cell H1975 and H441 (5x10^6 cells), and very low VEGFR2 expressing cells H1650 (5x10^6 cells) were injected subcutaneously into male nude mice. […] Mice were treated daily by oral gavage of ZD6474 (50 mg/kg, solved in vehicle), PD0325901 (12mg/kg, dissolved in propylene glycol:water (1:1)), the combination of ZD6474 (50 mg/kg) and PD0325901 (12mg/kg) or vehicle detergent alone. Tumor size of tumors expressing high levels of VEGFR2 (H441, H1975) and tumor with low expression of VEGFR2 (H1650) were monitored during treatment measuring perpendicular diameters.

The subject of a further assay is H1975. How it is done:
as §1, §2

Another assay concerns H441. The conditions noted are these: H441, high VEGFR2; daily oral gavage ZD6474 50 mg/kg, PD0325901 12mg/kg; start at about 50mm^3; Fig. 10. How it is done:
as §1, §2

Another assay relates to VEGFR2. Conditions: H1975 expressing ZD6474 resistance mutation of VEGFR2; in vitro.
In assay [2] the test system is H441 cells. Conditions: Figure 4.

As to `COc1cc2c(Nc3ccc(Br)cc3F)ncnc2cc1OCC1CCN(C)CC1` [Vandetanib, N-(4-bromo-2-fluorophenyl)-6-methoxy-7-[(1-methylpiperidin-4-yl)methoxy]quinazolin-4-amine], the “VEGF secretion under hypoxic conditions” value with H441 cells [1] (ZD6474 (1µM), hypoxia (1% O2), Figure 6) is “inhibits VEGF secretion”. Also, in the assay with H441 cells [1] (stimulation with VEGF, Zactima 1µM, Rapamycin 250nM), the “VEGF-induced VEGF secretion” value was “blunted”. Further, the pERK signaling entry in the assay on pERK is “again increased”. For the same compound, the tumor volume entry in the assay with H1650 is listed as “almost comparable to the non-treated control”; with H1975 (H1975, high VEGFR2, daily oral gavage ZD6474 50 mg/kg, PD0325901 12mg/kg, start at about 50mm^3, Fig. 10), “did not reduce the tumor volume”; with H441, “did not reduce the tumor volume”. The tumor growth result in the assay with H1975 (mice with established tumors, Fig. 1b) is recorded as “inhibited tumor growth but failed to induce tumor regression”. Besides, the tumor vessel density entry in the assay with H1975 (resected tumors, ZD6474 (75mg/kg) per Figure 8) is recorded as “strong reduction”. Moreover, in the assay with H1975 (treatment simultaneous to tumor inoculation, Fig. 1e), the “establishment of tumors in vivo” value was “completely abrogated”. Further, the “ZD6474-mediated VEGFR2-dephosphorylation” value in the assay with VEGFR2 was “abolished”. In addition, in the assay with H441 cells [2], the “incorporation of BRDU as marker for cellular replication” value was “not changed”.
